In paper PMC12667295, “A surrogate barrier model for high-throughput blood-brain barrier permeability prediction: integrating LLC-PK1-MOCK/MDR1 Cells and lysosomal trapping correction” (Drug Delivery, 2025):

Key:
[1] = in vitro; conditions: pig, LLC-PK1 MOCK cell monolayer (Transwell), pH 7.4
[2] = tested on: P-gp (human MDR1); experiment: in vitro; conditions: pig, LLC-PK1, pH 7.4;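 note: 2 h incubation at 37 °C, receiver HBSS with 10 mM Hepes plus 1% BSA, LC-MS/MS of donor and receiver, recovery as receiver plus donor amount over initial donor amount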
[3] = Bidirectional transport across LLC-PK1 MOCK monolayer (Transwell); conditions: pig, LLC-PK1 MOCK cell monolayer (Transwell), pH 7.4, Recovery after correction of intracellular accumulation data, A-B, cell lysate included, mean±SD, n=3;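 note: compound quantified by LC-MS/MS in donor and receiver wells, efflux ratio as B-A over A-B Papp, recovery relative to initial donor amount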

| recovery at 2 h, 2 µM [1] | recovery at 2 h, 2 µM [2] | recovery at 2 h, 2 µM [3] | Compound |
| --- | --- | --- | --- |
| 111 ± 2.72% | 112 ± 10% | – | Cc1cccc([C@H](C)c2cnc[nH]2)c1C [Dexmedetomidine] |
| 119 ± 6.58% | – | – | Nc1nnc(-c2cccc(Cl)c2Cl)c(N)n1 [Lamotrigine] |
| – | – | 99.5 ± 12.8% | CCN(CC)CCNC(=O)c1c(C)[nH]c(/C=C2\C(=O)Nc3ccc(F)cc32)c1C [Sunitinib] |
| 117 ± 7.46% | 118 ± 11.1% | – | CCC1(c2cnc[nH]2)Cc2ccccc2C1 [Atipamezole] |
